SMILES strings stand for the structures. This is a selection; strong and weak results do not stand in their true shares. Potency and affinity values are given separately. Active and inactive are the calls of the source. No stated cut-off is given here; in the data, active means cytotoxicity above about 50%; inactive means the rest.

A short description of this assay: cytotoxicity in HPDE-C7 cells, cell-based, fluorescence, HTS (AID 430).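 Further: cells exposed to compound for 48 hours before viability readout; 0% = vehicle and 100% = reference cytotoxic drug.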 Conditions: HPDE-C7 pancreatic duct cells viability, at 10 µM, hits give high values.
On to `CN(C)CCOC(=O)C(O)(c1ccccc1)C1CCCCC1` (stereo not drawn), for which the cytotoxicity was inactive: -2.5%.
`Cc1ccccc1NP(C)(=O)Nc1ccccc1C`: the cytotoxicity is inactive: -13.1%.
Then `CP(=O)(Nc1ccc2c(c1)OCCO2)Oc1ccccc1` (stereo not drawn), with inactive: 7.7%; and `CCOP(C)(=S)SCC(=O)NC(C)(CC)C(=O)O` (stereo not drawn), with inactive: -16.3%; and `CP(=O)(Nc1ccccc1F)Oc1ccccc1` (stereo not drawn), with inactive: -7.9%.
As for `Cc1nc2ccc3ccccc3c2o1.O=[N+]([O-])c1cc([N+](=O)[O-])c(O)c([N+](=O)[O-])c1`, the cytotoxicity was inactive: 5.1%.
`COc1ccccc1OP(C)(=O)Nc1ccc(C)c(C)c1` (stereo not drawn): the cytotoxicity was inactive: -1.5%.
Consider `CP(=O)(Nc1ccccn1)Oc1ccccc1` (stereo not drawn), for which the cytotoxicity was inactive: 8.5%.
In the case of `COc1ccccc1OP(C)(=O)Nc1c(C)n(C)n(-c2ccccc2)c1=O` (stereo not drawn) it was inactive: -11.2%.
Regarding `CP(=O)(Oc1ccccc1)N1CCOC1=O` (stereo not drawn), the cytotoxicity is inactive: 3.5%.
In the case of `CCN(CC)CC(O)COC(=O)C(O)(c1ccccc1)C1CCCCC1` (stereo not drawn), the cytotoxicity is inactive: 17.1%.
Then `CP(=S)(Nn1cnnc1)Oc1ccccc1` (stereo not drawn), with inactive: 0.7%; and `CCOP(C)(=S)SCC(=O)NC(C)C(=O)O` (stereo not drawn), with inactive: -18.2%.
Consider `CP(=O)(NC(=O)Nc1ccccc1)Oc1ccccc1` (stereo not drawn), for which the cytotoxicity is inactive: -9.2%.
With `Cc1ccc(NP(C)(=O)Oc2ccccc2)c(C)c1` (stereo not drawn), the cytotoxicity was inactive: -9.5%.
Regarding `COc1ccccc1OP(C)(=O)Nc1ccc(C)cc1` (stereo not drawn), the cytotoxicity was inactive: 0.6%.
`Cc1ccc(C)c(NP(C)(=O)Oc2ccccc2)c1` (stereo not drawn): the cytotoxicity is inactive: 5.2%.
Then `Cc1nc2ccc3ccccc3c2s1.O=[N+]([O-])c1cc([N+](=O)[O-])c(O)c([N+](=O)[O-])c1`, with inactive: -10.5%.
